# Test results taken from US9073855B2, “BCL-2 selective apoptosis-inducing agents for the treatment of cancer and immune diseases” (AbbVie Inc., priority 2008, dated 2015).
# Protein sequences, listed by entry. Tags and fused reporters are not part of them.
# UniProt P10415, whole entry: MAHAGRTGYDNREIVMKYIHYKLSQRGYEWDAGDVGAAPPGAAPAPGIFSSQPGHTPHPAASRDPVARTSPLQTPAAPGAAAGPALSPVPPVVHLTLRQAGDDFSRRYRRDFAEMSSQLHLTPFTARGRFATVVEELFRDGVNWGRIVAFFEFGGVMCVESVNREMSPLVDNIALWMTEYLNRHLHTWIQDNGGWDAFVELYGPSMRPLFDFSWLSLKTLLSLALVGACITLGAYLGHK
# Target: GST-Bcl-2 (Homo sapiens, UniProt P10415)
# Test: TR-FRET binding assay, GST-Bcl-2 with F-Bak peptide probe
# Details: TR-FRET; Bcl-XL Ki divided by Bcl-2 Ki
# Protocol: Tb-anti-GST antibody was purchased from Invitrogen (Catalog No. PV4216).
# Representative compounds were serially diluted in dimethyl sulfoxide (DMSO) starting at 50 μM (2× starting concentration; 10% DMSO) and 10 μL were transferred into a 384-well plate.
# The samples were then mixed on a shaker for 1 minute and incubated for an additional 3 hours at room temperature. For each assay, the probe/antibody and protein/probe/antibody were included on each assay plate as negative and positive controls, respectively. Fluorescence was measured on the ENVISION plate reader (Perkin Elmer) using a 340/35 nm excitation filter and 520/525 (F-Bak peptide) and 495/510 nm (Tb-labeled […] antibody) emission filters.
# The inhibition constant (Ki) is the dissociation constant of an enzyme-inhibitor complex or a protein/small molecule complex, wherein the small molecule is inhibiting binding of one protein to another protein or peptide. […] Inhibition constants were determined using Wang's equation (Wang Z-X., An Exact Mathematical Expression For Describing Competitive Binding Of Two Different Ligands To A Protein Molecule. FEBS Lett. 1995, 360:111-4).
row,SMILES,Binding selectivity ratio (Bcl-XL Ki/Bcl-2 Ki)
1,"CN1CCC(CNc2ccc(S(=O)(=O)NC(=O)c3ccc(N4CCN(CC5=C(c6ccc(Cl)cc6)CC(C)(C)CC5)CC4)cc3Oc3cccc4[nH]cnc34)cc2[N+](=O)[O-])CC1 [Example 454, 2-(1H-benzimidazol-4-yloxy)-4-(4-{[2-(4-chlorophenyl)-4,4-dimethylcyclohex-1-en-1-yl]methyl}piperazin-1-yl)-N-[(4-{[(1-methylpiperidin-4-yl)methyl]amino}-3-nitrophenyl)sulfonyl]benzamide]",735.2
2,"CC1(C)CCC(CN2CCN(c3ccc(C(=O)NS(=O)(=O)c4ccc(NC[C@H]5CC[C@H](C#N)CC5)c([N+](=O)[O-])c4)c(Oc4cccc5[nH]cnc45)c3)CC2)=C(c2ccc(Cl)cc2)C1 [Example 462, Trans-2-(1H-benzimidazol-4-yloxy)-4-(4-{[2-(4-chlorophenyl)-4,4-dimethylcyclohex-1-en-1-yl]methyl}piperazin-1-yl)-N-[(4-{[(4-cyanocyclohexyl)methyl]amino}-3-nitrophenyl)sulfonyl]benzamide]",710.8
3,"CC1(C)CCC(CN2CCN(c3ccc(C(=O)NS(=O)(=O)c4ccc(OCC5COCCO5)c([N+](=O)[O-])c4)c(Oc4cccc5[nH]ncc45)c3)CC2)=C(c2ccc(Cl)cc2)C1 (stereo not drawn) [Example 447, 4-(4-{[2-(4-chlorophenyl)-4,4-dimethylcyclohex-1-en-1-yl]methyl}piperazin-1-yl)-N-{[4-(1,4-dioxan-2-ylmethoxy)-3-nitrophenyl]sulfonyl}-2-(1H-indazol-4-yloxy)benzamide]",2373.1
4,"CC1(C)CCC(CN2CCN(c3ccc(C(=O)NS(=O)(=O)c4ccc(NC5CCN(C6CC6)CC5)c([N+](=O)[O-])c4)c(Oc4cccc5[nH]ncc45)c3)CC2)=C(c2ccc(Cl)cc2)C1 [Example 436, 4-(4-{[2-(4-chlorophenyl)-4,4-dimethylcyclohex-1-en-1-yl]methyl}piperazin-1-yl)-N-({4-[(1-cyclopropylpiperidin-4-yl)amino]-3-nitrophenyl}sulfonyl)-2-(1H-indazol-4-yloxy)benzamide]",590.9

# Same assay, conditions: ratio of TR-FRET Ki values, Bcl-XL over Bcl-2
row,SMILES,Binding selectivity ratio (Bcl-XL Ki/Bcl-2 Ki)
1,"CC1(C)CCC(CN2CCN(c3ccc(C(=O)NS(=O)(=O)c4ccc(N[C@@H]5CCN(C(CF)CF)C5)c([N+](=O)[O-])c4)c(Oc4cccc5[nH]ncc45)c3)CC2)=C(c2ccc(Cl)cc2)C1 [Example 435, 4-(4-{[2-(4-chlorophenyl)-4,4-dimethylcyclohex-1-en-1-yl]methyl}piperazin-1-yl)-N-{[4-({(3R)-1-[2-fluoro-1-(fluoromethyl)ethyl]pyrrolidin-3-yl}amino)-3-nitrophenyl]sulfonyl}-2-(1H-indazol-4-yloxy)benzamide]",1935.1
2,"CC1(C)CCC(CN2CCN(c3ccc(C(=O)NS(=O)(=O)c4cnc(OCC5(F)CCOCC5)c(F)c4)c(Oc4cccc5[nH]ncc45)c3)CC2)=C(c2ccc(Cl)cc2)C1 [Example 416, 4-(4-{[2-(4-chlorophenyl)-4,4-dimethylcyclohex-1-en-1-yl]methyl}piperazin-1-yl)-N-({5-fluoro-6-[(4-fluorotetrahydro-2H-pyran-4-yl)methoxy]pyridin-3-yl}sulfonyl)-2-(1H-indazol-4-yloxy)benzamide]",2569.0
3,"CC1(C)CCC(CN2CCN(c3ccc(C(=O)NS(=O)(=O)c4cnc(OCC5(F)CCOCC5)c(C#N)c4)c(Oc4cccc5[nH]ncc45)c3)CC2)=C(c2ccc(Cl)cc2)C1 [Example 406, 4-(4-{[2-(4-chlorophenyl)-4,4-dimethylcyclohex-1-en-1-yl]methyl}piperazin-1-yl)-N-({5-cyano-6-[(4-fluorotetrahydro-2H-pyran-4-yl)methoxy]pyridin-3-yl}sulfonyl)-2-(1H-indazol-4-yloxy)benzamide]",1263.8
4,"CO[C@H]1CC[C@H](COc2ncc(S(=O)(=O)NC(=O)c3ccc(N4CCN(CC5=C(c6ccc(Cl)cc6)CC(C)(C)CC5)CC4)cc3Oc3cccc4[nH]ncc34)cc2Cl)CC1 [Example 414, Trans-N-({5-chloro-6-[(4-methoxycyclohexyl)methoxy]pyridin-3-yl}sulfonyl)-4-(4-{[2-(4-chlorophenyl)-4,4-dimethylcyclohex-1-en-1-yl]methyl}piperazin-1-yl)-2-(1H-indazol-4-yloxy)benzamide]",13930.5
5,"CC1(C)CCC(CN2CCN(c3ccc(C(=O)NS(=O)(=O)c4cnc(OCC5(F)CCOCC5)c(C(F)(F)F)c4)c(Oc4cccc5[nH]ncc45)c3)CC2)=C(c2ccc(Cl)cc2)C1 [Example 410, 4-(4-{[2-(4-chlorophenyl)-4,4-dimethylcyclohex-1-en-1-yl]methyl}piperazin-1-yl)-N-{[6-[(4-fluorotetrahydro-2H-pyran-4-yl)methoxy]-5-(trifluoromethyl)pyridin-3-yl]sulfonyl}-2-(1H-indazol-4-yloxy)benzamide]",1838.6
